Experimental data: PMC4357494 (Journal of molecular biology, 2014)

Legend:
[1] = tested on: Bcl-2 3256 cells (Bcl-2 dependent)
[2] = tested on: Mcl-1 2640 cells (Mcl-1 dependent); test: BH3 profiling, Mcl-1 2640; format: cell-based, murine; details: 5 μM peptide
Procedure, shortened: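 Myc-driven murine leukemia line, Mcl-1 dependent, grown in RPMI 1640 with 10% FBS and […] 2-mercaptoethanol. Permeabilized cells at 2×10^4/well, triplicate wells, exposed to peptides including 5 μM. JC-1 read-out; depolarization expressed as percentage relative to FCCP (full) and DMSO (none). At least three biological replicates.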

EC50 [1]: > 10 µM
SMILES: CSCC[C@H](NC(=O)[C@@H](NC(=O)[C@H](CCCNC(=N)N)NC(=O)[C@H](CCC(N)=O)NC(=O)[C@H](Cc1c[nH]cn1)NC(=O)[C@H](CC(C)C)NC(=O)[C@H](CCC(=O)O)NC(=O)[C@H](CC(=O)O)NC(=O)CNC(=O)[C@H](CC(C)C)NC(=O)[C@H](C)NC(=O)[C@H](CCCCN)NC(=O)[C@H](CC(C)C)NC(=O)[C@H](CCCNC(=N)N)NC(=O)[C@H](C)NC(=O)[C@H](C)NC(=O)[C@@H](NC(=O)[C@H](CC(C)C)NC(=O)[C@H](CCC(N)=O)NC(=O)[C@H](C)NC(=O)[C@H](C)NC(=O)[C@H](CO)NC(C)=O)[C@@H](C)O)[C@@H](C)O)C(=O)N[C@@H](Cc1c[nH]c2ccccc12)C(N)=O [Hrk, reference compound]
depolarization in the Mcl-1 dependent line (in words) [2]: low amount of depolarization
